Reference: US20200368373A1, “OPTICAL IMAGING AGENTS TARGETING INFLAMMATION” (SORBONNE UNIVERSITE, priority 2018, published 2020)

Tests used:
[1] = test system: CT26.WT mus musculus colon carcinoma cells; experiment: In vitro binding and internalization by flow cytometry, tumor cells; format: cell-based; conditions: LPS-stimulated cells, 30 ng; for binding to tumor cells: 20 min at 4° C.
Description: (§1) The in vitro experiments were performed with bEnd.3 mus musculus brain endothelial cells (CRL-2299™) and CT26.WT mus musculus colon carcinoma cells (CRL-2638™) provided by ATCC®. Those cells were cultured in DMEM-Dulbecco's Modified Eagle Medium (10566-016, Gibco Thermo Fisher) added by 10% of fetal bovine serum (10500056, Gibco Thermo Fisher) and 1% of Penicillin-Streptomycin (5,000 U/mL, 15070063, Gibco Thermo Fisher) antibiotics. A suspension of Lipopolysaccharide stimulated cells (0.1 mg/mL, 4 h, 37° C.), were collected and prepared in binding buffer (50 mM Tris HCl, 150 mM NaCl, 1 mM CaCl2, 1 mM MgCl2, 1 mM MnCl2, 1% BSA in water) at 500 000 cell per milliliter. An incubation of 1 h at 4° C. was realized in order to saturate unspecific binding. For evaluation of E-selectin expression (FIG. 4A) cells were incubated successively with purified rat anti-Mouse CD62E antibody (1 μg/mL, 550290 BD Pharmingen™) in PBS/BSA 1% and with goat anti-rat IgG-Alexa Fluor®488 (1 μg/ml, ab150157 Abcam) for 30 min a 4° C. To study cellular binding and internalization, cells were incubated with 30 ng of HSA or HSA-SLX for 20min at 4° C. (FIG. 4B-C) or 37° C. (FIG. 4D).
(§2) After those different steps, cells were washed twice with binding buffer and analyzed by flow cytometry (Guava® easyCyte Millipore).

[2] = test system: bEnd.3 mus musculus brain endothelial cells; experiment: In vitro binding and internalization by flow cytometry, endothelial cells; format: cell-based; conditions: LPS-stimulated cells, 30 ng; for binding to endothelial cells: 20 min at 4° C.; for internalization by endothelial cells: 20 min at 37° C.
Description: as §1, §2

[3] = Size exclusion chromatography/UV: distribution of monomers, dimers, trimers and oligomers; format: physicochemical; conditions: SEC, UV 280 nm, FIG. 10
Description: Size exclusion chromatography/UV was performed to evaluate the distribution of monomers, dimers, trimers and oligomers of the optical imaging agents according to the present invention.
Separation and analysis were performed on a LC-10 liquid chromatography system from Shimadzu (Kyoto, Japan) natively equipped with a vacuum degasser, an auto-sampler, a UV absorbance detector and refractive index detector (RID). The size exclusion chromatography stationary phase was a Shodex Protein LW 803 column provided by Showa Denko (Japan). Between the auto-sampler and HPLC pump, mobile phase was filtered in-line by a 0.1 μm durapore PVDF membrane in a PEEK in-line filter. Detection was realized using UV absorbance at a wavelength of 280 nm. Concomitantly, refractive index quantifications were performed using white light. Mobile phase was CH3COONH4 50 mM NaN3 0.03% in milli-Q water degassed by vacuum pump and filtered on stericup filter units. MALS detection was achieved on a three angle mini-Dawn Treos II from Wyatt Technology equipped with a 658 nm wavelength laser. Data analysis was achieved on Astra 7.1, Wyatt Technology.

Question: What does the source list for “non-functionalized albumin: Cyanine-labelled albumin which does not contain any targeting portion (no BIOVECTOR), used as control”?
Answer: binding to tumor cells [1]: neither bind; internalization by tumor cells ([1]; 20 min at 37° C.): nor is internalized; binding to endothelial cells [2]: neither bind; internalization by endothelial cells [2]: nor is internalized

Question: Which “binding to tumor cells” value [1] does the source give for “HSA-SLX: Human serum albumin labelled with sulfo-cyanine 5 and grafted with Sialyl Lewis X via maleimide/iminothiolane linker” here?
Answer: bind to both type of cells

Question: What about the “distribution into monomers, dimers, trimers or oligomers (aggregation)” value [3] of the same substance?
Answer: exist mainly in the form of monomers and form very few oligomers

Question: What about the “binding to endothelial cells” value [2] of the same substance?
Answer: bind to both type of cells

Question: And the “internalization by endothelial cells” value [2]?
Answer: internalized mostly by endothelial cells
